The test system of data set [1] is Human monocyte-derived dendritic cells (moDCs). Description: moDC CC50 (CellTiter Glo viability). The class given is cell-based. The conditions noted are these: uninfected moDCs, 48 hours. The procedure:
Human monocyte-derived dendritic cells (moDCs) were derived from CD14+ monocytes (AllCells) cultured in Human Mo-DC Differentiation medium containing GM-CSF and IL-4 (Miltenyi Biotec). On day 7, moDCs were harvested by mechanical disruption, washed and cultured in triplicate at […] cells/well in 96-well plates with compounds dispensed at graded doses (Hewlett-Packard D300 Digital Dispenser). All wells were normalized to 0.25% DMSO. After 48 hours, CellTiter Glo (Promega) was added and incubated for 10 minutes at room temp before reading on a luminometer. % viability curves were calculated against no compound and no cell control wells. CC50 values were determined using Prism Graphpad software.
A general note: In ATP-based viability assays light output follows the ATP content of the culture.

A short description of data set [2]: HEp-2 CC50 (cytotoxicity in uninfected HEp-2 cells). The class given is cell-based. Particulars: human, CellTiter Glo. As to the method:
Instead, an uninfected cell mixture at the same density is added at 20 uL/well to plates containing prediluted compounds, also at 100 nL/sample. Assay plates are then incubated for 4 days followed by a cell viability test using the same CellTiter Glo reagent addition and measurement of luminescent readouts. Untreated cell and cells treated at 2 μM puromycin (Sigma, St. Louis, MO) serve as 100% and 0% cell viability control, respectively.

Structures are written as SMILES.

As a reminder, the CC50 is the concentration giving 50% cytotoxicity.

As to `CCOC(=O)[C@H](C)NP(=O)(OC[C@@]1(CF)O[C@@H](c2ccc3c(N)ncnn23)[C@H](OC(=O)CC)[C@@H]1OC(=O)CC)Oc1ccccc1` (stereo partly drawn) [Example 25, (2R,3S,4S,5S)-5-(4-aminopyrrolo[2,1-f][1,2,4]triazin-7-yl)-2-((((((S)-1-ethoxy-1-oxopropan-2-yl)amino)(Phenoxy)phosphoryl)oxy)methyl)-2-(fluoromethyl) tetrahydrofuran-3,4-diyl dipropionate], the cytotoxic concentration (CC50) in data set [1] is 12.2 µM.
For `CCC(CC)COC(=O)[C@H](C)N[P@](=O)(OC[C@@]1(CF)O[C@@H](c2ccc3c(N)ncnn23)[C@H](OC(=O)C(C)C)[C@@H]1OC(=O)C(C)C)Oc1ccccc1` (single isomer, unassigned) [Example 62], it took 16.8 µM to reach half-maximal cytotoxicity in data set [2] (CC50 at 4 days).

The record behind these values is patent US12030903B2, “Antiviral compounds” (Gilead Sciences, Inc., priority 2020, dated 2024).
